# Assay results reported in paper PMC2635097 (Molecular pharmacology, 2008).
# By UniProt entry, the sequences of proteins in these tests, tags left out.
# UniProt Q9UGI6, whole entry: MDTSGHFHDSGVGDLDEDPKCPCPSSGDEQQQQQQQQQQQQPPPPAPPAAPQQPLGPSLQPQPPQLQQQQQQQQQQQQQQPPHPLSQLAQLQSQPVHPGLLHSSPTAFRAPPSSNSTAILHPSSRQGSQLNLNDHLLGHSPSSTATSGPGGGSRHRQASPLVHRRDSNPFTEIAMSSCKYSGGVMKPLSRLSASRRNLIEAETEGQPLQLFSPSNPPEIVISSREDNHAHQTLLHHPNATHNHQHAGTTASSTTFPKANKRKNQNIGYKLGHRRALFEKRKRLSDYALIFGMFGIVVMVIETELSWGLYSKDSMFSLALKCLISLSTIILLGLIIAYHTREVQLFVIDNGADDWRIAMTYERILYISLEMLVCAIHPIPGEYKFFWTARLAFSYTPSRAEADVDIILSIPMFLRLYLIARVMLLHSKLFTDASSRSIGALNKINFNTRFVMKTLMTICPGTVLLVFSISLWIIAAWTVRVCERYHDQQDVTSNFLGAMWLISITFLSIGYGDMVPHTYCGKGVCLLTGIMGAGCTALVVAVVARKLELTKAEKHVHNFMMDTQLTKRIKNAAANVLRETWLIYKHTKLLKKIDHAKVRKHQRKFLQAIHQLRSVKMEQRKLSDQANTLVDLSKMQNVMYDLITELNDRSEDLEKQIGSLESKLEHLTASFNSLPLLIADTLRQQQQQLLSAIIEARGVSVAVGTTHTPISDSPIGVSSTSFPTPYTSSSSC
# Biological target: hKCa2.3 (Homo sapiens, UniProt Q9UGI6)
# Test: Whole-cell patch-clamp of KCa2.3 currents
# Format: cell-based
# Conditions: read-out: EC50 KCa2.3 activation
compound,measurement,value
"Nc1nc2ccc(OC(F)(F)F)cc2s1 [Riluzole, 2-amino-6-[trifluoromethoxy]benzothiazole, reference compound]",EC50,12.5 µM
